Among the data in ChEMBL document CHEMBL1127486, “Design of cyclic deltorphins and dermenkephalins with a disulfide bridge leads to analogues with high selectivity for delta-opioid receptors” (J Med Chem, 1994) are IC50 values, retold here.

Protein sequences, listed by entry. Tags and fused reporters are not part of them.
UniProt P32300, whole entry: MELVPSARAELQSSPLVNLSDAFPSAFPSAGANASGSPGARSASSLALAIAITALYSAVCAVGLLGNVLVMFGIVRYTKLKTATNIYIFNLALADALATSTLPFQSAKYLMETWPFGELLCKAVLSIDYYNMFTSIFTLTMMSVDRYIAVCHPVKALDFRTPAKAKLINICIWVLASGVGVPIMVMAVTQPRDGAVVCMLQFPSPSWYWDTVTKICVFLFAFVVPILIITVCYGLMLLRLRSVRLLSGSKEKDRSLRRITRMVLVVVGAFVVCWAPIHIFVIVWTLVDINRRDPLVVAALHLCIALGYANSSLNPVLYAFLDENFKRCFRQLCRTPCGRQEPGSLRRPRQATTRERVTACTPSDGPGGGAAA

Broadly, the IC50 is the concentration needed to halve the response being measured. High values mean a need for much substance, low ones inhibition by little substance.

SMILES strings stand for the structures.

The assay concerns the target Delta-type opioid receptor (Mus musculus, UniProt P32300). The assay can be described thus: In vitro inhibition of electrically induced smooth muscle contractions of mouse vas deferens. It counts as functional, tissue-based.

With `CC(C)[C@H](NC(=O)[C@H](CC(=O)O)NC(=O)[C@H](Cc1ccccc1)NC(=O)[C@@H](C)NC(=O)[C@@H](N)Cc1ccc(O)cc1)C(=O)N[C@H](C(=O)NCC(N)=O)C(C)C` (stereo in doubt; form 1) [DELTORPHIN C], the IC50 came out at 0.36 nM. In other words, the sub-nanomolar range.
For the compound `CC(C)[C@H](NC(=O)[C@H](CC(=O)O)NC(=O)[C@H](Cc1ccccc1)NC(=O)[C@@H](C)NC(=O)[C@@H](N)Cc1ccc(O)cc1)C(=O)N[C@H](C(=O)NCC(N)=O)C(C)C` (stereo in doubt; form 2) [DELTORPHIN C], the IC50 was 0.67 nM.
